# This is a selection; strong and weak results do not stand in their true shares. Some salts and complexes are drawn in separate pieces, as the source files them; their charges need not balance. Active and inactive are the calls of the source.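 The calls were made as follows: active = more than half of replicate wells score below -50%, meaning over 50% inhibition versus plate controls; inconclusive = some replicates but at most half score below -50%; inactive = no replicate scores below -50%.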
# By UniProt entry, the sequences of proteins in these tests, tags left out.
# UniProt P49841, whole entry: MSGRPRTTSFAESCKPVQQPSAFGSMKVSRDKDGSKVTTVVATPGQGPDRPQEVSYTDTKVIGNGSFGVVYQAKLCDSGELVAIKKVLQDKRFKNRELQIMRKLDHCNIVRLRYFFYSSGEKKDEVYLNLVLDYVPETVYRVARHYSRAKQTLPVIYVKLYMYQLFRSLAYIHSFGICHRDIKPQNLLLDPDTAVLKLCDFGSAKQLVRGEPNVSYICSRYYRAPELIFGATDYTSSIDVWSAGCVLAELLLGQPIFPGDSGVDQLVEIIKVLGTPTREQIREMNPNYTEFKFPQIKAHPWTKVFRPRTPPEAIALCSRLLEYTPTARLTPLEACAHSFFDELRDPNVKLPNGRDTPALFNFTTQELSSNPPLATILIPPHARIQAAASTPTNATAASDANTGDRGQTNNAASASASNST
# Target: Glycogen synthase kinase-3 beta (Homo sapiens) (UniProt P49841)
# Assay: human GSK3beta kinase inhibitors, primary screen, biochemical, cell-free homogeneous, HTS (AID 2097);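 also: 0% = median DMSO wells and -100% = median GW8510 positive control wells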
# Details: GST-GSK3beta kinase, ADP-Glo luminescence, 60 min; at 10 µM; stronger effect = lower value
row,SMILES,activity score (negative = inhibition)
1,Cc1c(NP(C)(=O)Oc2ccc(C(C)C)cc2)c(=O)n(-c2ccccc2)n1C (stereo not drawn),inactive: 0.762%
2,O=[N+]([O-])c1cc([N+](=O)[O-])c(Nc2ccccn2)c([N+](=O)[O-])c1,inactive: 0.803%
3,CCc1ccc(OP(C)(=O)O)cc1,inactive: -2.73%
4,CP(=O)(Nc1ccccn1)Oc1ccccc1 (stereo not drawn),inactive: 1.91%
5,COc1ccccc1OP(C)(=O)Nc1ccc(C)cc1C (stereo not drawn),inactive: 2.75%
6,COc1ccccc1OP(C)(=O)Nc1ccc(Br)cc1 (stereo not drawn),inactive: -1.79%
7,CN(C)CCOC(=O)C(O)(c1ccccc1)C1CCCC1 (stereo not drawn),inactive: 0.769%
8,COc1ccc(OP(C)(=O)Nc2ccccn2)cc1 (stereo not drawn),inactive: -25.7%
9,Cc1nc2ccc3ccccc3c2o1.O=[N+]([O-])c1cc([N+](=O)[O-])c(O)c([N+](=O)[O-])c1,inactive: -2.93%
10,CP(=O)(Nc1ccc(Cl)cc1Cl)Oc1ccccc1 (stereo not drawn),inactive: -4.31%
11,CP(=O)(OCCOc1ccccc1)OCCOc1ccccc1,inactive: 0.21%
12,Cc1cc(C)cc(OP(C)(=O)Nc2cccc(C(F)(F)F)c2)c1 (stereo not drawn),inactive: -4.03%
13,COc1ccc(OP(C)(=O)Nc2ccccc2Br)cc1 (stereo not drawn),inactive: 2.87%
14,COc1ccccc1OP(C)(=O)Nc1ccc(C)c(C)c1 (stereo not drawn),inactive: 0.297%
15,Nc1ccc2c(ccc3cccnc32)n1.O=[N+]([O-])c1cc([N+](=O)[O-])c(O)c([N+](=O)[O-])c1,inactive: 1.52%
16,CP(=O)(OC12CC3CC(CC(C3)C1)C2)OC12CC3CC(CC(C3)C1)C2,inactive: -3.77%
17,CCOC(=O)c1ccc(NP(C)(=O)Oc2ccc(Cl)cc2)cc1 (stereo not drawn),inactive: 0.659%
18,CP(=O)(Nc1ccc(Cl)cc1)Oc1ccc(F)cc1 (stereo not drawn),inactive: 5.33%
19,COc1ccccc1OP(C)(=O)Nc1ccccc1Br (stereo not drawn),inactive: 3.62%
20,CC(C)(C)c1ccc(OP(C)(=O)O)cc1,inactive: -1.39%
21,CN(C)C(=O)c1c([N+](=O)[O-])cc([N+](=O)[O-])cc1[N+](=O)[O-],inactive: 4.38%
22,CCN(CC)CC(O)COC(=O)C(O)(c1ccccc1)C1CCCCC1 (stereo not drawn),inactive: 5.2%

row,SMILES,activity score (negative = inhibition)
1,COc1ccc(OP(C)(=O)Nc2ccc(Br)cc2)cc1 (stereo not drawn),inactive: 3.51%
2,CP(=O)(Oc1ccccc1)N1CCOC1=O (stereo not drawn),inactive: 1.62%
3,CCc1ccc(OP(C)(=O)Nc2cccnc2)cc1 (stereo not drawn),inactive: 2.32%
4,COc1ccccc1OP(C)(=O)Nc1c(C)n(C)n(-c2ccccc2)c1=O (stereo not drawn),inactive: 2.94%
5,O=C(OCCCN1CCCC1)C(O)(c1ccccc1)C1CCCCC1 (stereo not drawn),inactive: -0.752%
6,CP(=O)(Nc1ccc2c(c1)OCCO2)Oc1ccccc1 (stereo not drawn),inactive: -0.9%
7,Cc1ccccc1NP(C)(=O)Nc1ccccc1C,inactive: 2.45%
8,CP(=O)(Nc1ccc(SC(F)(F)F)cc1)Oc1ccc(F)cc1 (stereo not drawn),inactive: -0.884%
9,CCOP(C)(=S)SCC(=O)NC(C)(CC)C(=O)O (stereo not drawn),inactive: -2.18%
10,O=[N+]([O-])c1cc([N+](=O)[O-])c(NCC2CCS(=O)(=O)C2)c([N+](=O)[O-])c1 (stereo not drawn),inactive: -2.59%
11,Cc1cc(-c2cccc3ccccc23)c(C)cn1.O=[N+]([O-])c1cc([N+](=O)[O-])c(O)c([N+](=O)[O-])c1,inactive: 0.33%
12,O=[N+]([O-])c1ccc(OP2(=O)COCCO2)cc1 (stereo not drawn),inactive: -4.09%
13,COc1ccc(OP(C)(=O)Nc2cccc(Br)c2)cc1 (stereo not drawn),inactive: -1.39%
14,COc1ccc(NP(C)(=O)Oc2ccccc2OC)cc1 (stereo not drawn),inactive: 1.72%
15,CN(C)CCOC(=O)C(O)(c1ccccc1)C1CCCCC1 (stereo not drawn),inactive: 1.54%
16,CCN(CC)CCCOC(=O)C(O)(c1ccccc1)C1CCCCC1 (stereo not drawn),inactive: 1.15%
17,CCCCCOc1ccc(NP(C)(=O)Oc2ccc(Cl)cc2Cl)cc1 (stereo not drawn),inactive: -3.26%
18,O=[N+]([O-])c1cc([N+](=O)[O-])c(OC2CCCCC2O)c([N+](=O)[O-])c1 (stereo not drawn),inactive: 3.33%
19,CP(=O)(Nc1ccccc1)Oc1ccc(F)cc1 (stereo not drawn),inactive: 1.58%
20,COc1ccc(OP(C)(=O)Nc2ccc(SC(F)(F)F)cc2)cc1 (stereo not drawn),inactive: 1.64%
21,CCOC(=O)c1ccc(NP(C)(=O)Oc2ccc(F)cc2)cc1 (stereo not drawn),inactive: 1.89%
22,O=C(OCCN1CCN(CCOCc2ccccc2)CC1)C(O)(c1ccccc1)c1ccccc1,inactive: -0.974%

row,SMILES,activity score (negative = inhibition)
1,O=C(OC1CN2CCC1CC2)c1ccc([N+](=O)[O-])cc1 (stereo not drawn),inactive: -2.13%
2,COc1ccc2c(c1O)-c1c(O)c(OC)cc3c1[C@H](C2)[N+](C)(C)CC3.O=[N+]([O-])c1cc([N+](=O)[O-])c([O-])c([N+](=O)[O-])c1[O-],inactive: 0.166%
3,CC(C)c1ccc(OP(C)(=O)Nc2ccc(SC(F)(F)F)cc2)cc1 (stereo not drawn),inactive: -6.89%
4,CP(=O)(Nc1ccccc1F)Oc1ccccc1 (stereo not drawn),inactive: 4.33%
5,Cc1cc(C)cc(OP(C)(=O)Nc2ccccn2)c1 (stereo not drawn),inactive: -0.929%
6,CP(=O)(Nc1cccc(Br)c1)Oc1ccccc1 (stereo not drawn),inactive: -1.81%
7,Cc1ccc(C)c(NP(C)(=O)Oc2ccccc2)c1 (stereo not drawn),inactive: -0.341%
8,COc1ccccc1OP(C)(=O)Nc1cccc(Br)c1 (stereo not drawn),inactive: -2.32%
9,Cc1cc(C)cc(OP(C)(=O)Nc2ccc(C)cc2C)c1 (stereo not drawn),inactive: 3.45%
10,CCOC(=O)c1ccc(NP(C)(=O)Oc2cc(C)cc(C)c2)cc1 (stereo not drawn),inactive: 3.27%
11,CC1=NCCc2c1[nH]c1ccccc21.O=[N+]([O-])c1cc([N+](=O)[O-])c(O)c([N+](=O)[O-])c1,inactive: -0.157%
12,O=C(O)c1cccc(Nc2c([N+](=O)[O-])cc([N+](=O)[O-])cc2[N+](=O)[O-])c1,inactive: 3.54%
13,CN1CCCCC1COC(=O)C1(O)c2ccccc2CCc2ccccc21 (stereo not drawn),inactive: 3.26%
14,COc1ccccc1OP(C)(=O)Nc1c(C)cccc1C (stereo not drawn),inactive: 2.35%
15,CCCOc1ccc(NP(C)(=O)Oc2ccc(Cl)cc2)cc1 (stereo not drawn),inactive: -1.71%
16,CP(=O)(Nc1ccc(SC(F)(F)F)cc1)Oc1ccccc1 (stereo not drawn),inactive: 2.24%
17,O=[N+]([O-])c1cc([N+](=O)[O-])c(Nc2nnnn2CCO)c([N+](=O)[O-])c1,inactive: 3.57%
18,CCOC(=O)C(CC)C1=NC(C)(C)Cc2ccccc21.O=[N+]([O-])c1cc([N+](=O)[O-])c(O)c([N+](=O)[O-])c1 (stereo not drawn),inactive: -22.6%
19,O=[N+]([O-])c1cc([N+](=O)[O-])c(-c2cnn(-c3ccccc3)c2)c([N+](=O)[O-])c1,inactive: 0.264%
20,O=[N+]([O-])c1cc([N+](=O)[O-])c(-n2nnc3ccccc32)c([N+](=O)[O-])c1,inactive: 3.6%
21,CCOP(C)(=S)SCC(=O)NC(C)C(=O)O (stereo not drawn),inactive: 1.77%
22,O=[N+]([O-])c1cc([N+](=O)[O-])c(O)c([N+](=O)[O-])c1.c1ccc(Oc2ccncc2)cc1,inactive: -24.8%

row,SMILES,activity score (negative = inhibition)
1,CCOC(=O)c1ccc(NP(C)(=O)Oc2ccc(OC)cc2)cc1 (stereo not drawn),inactive: 3.24%
2,CP(=O)(Nc1ccccn1)Oc1ccc(Cl)cc1 (stereo not drawn),inactive: -1.25%
3,CP(=O)(Nc1ccc(SC(F)(F)F)cc1)Oc1ccc(Cl)cc1 (stereo not drawn),inactive: -6.65%
4,Cc1cccc(C)c1OP(C)(=O)Nc1ccc(SC(F)(F)F)cc1 (stereo not drawn),inactive: -23.9%
5,CP(=O)(Oc1ccccc1)OC(c1ccccc1)C(F)(F)F (stereo not drawn),inactive: -2.84%
6,CP(=O)(NC(=O)Nc1ccccc1)Oc1ccccc1 (stereo not drawn),inactive: 4.78%
7,CCc1ccc(OP(C)(=O)N2CCN(c3ccc([N+](=O)[O-])cc3)CC2)cc1 (stereo not drawn),inactive: 6.22%
8,Cc1cc(C)cc(OP(C)(=O)Nc2ccc(SC(F)(F)F)cc2)c1 (stereo not drawn),inactive: 0.847%
9,CP(=S)(Nn1cnnc1)Oc1ccccc1 (stereo not drawn),inactive: 5.59%
10,COc1ccccc1OP(C)(=O)Nc1ccccc1 (stereo not drawn),inactive: 0.863%
11,CP(=O)(Nc1ccccc1Br)Oc1ccccc1 (stereo not drawn),inactive: -1.94%
12,CCOC(=O)c1ccc(NP(C)(=O)Oc2ccccc2)cc1 (stereo not drawn),inactive: 2.13%
13,COc1ccccc1OP(C)(=O)Nc1ccc(C)cc1 (stereo not drawn),inactive: 0.588%
14,Cc1ccc(NP(C)(=O)Oc2ccccc2)c(C)c1 (stereo not drawn),inactive: 1.25%
15,COc1ccccc1OP(C)(=O)Nc1cc(Cl)ccc1C (stereo not drawn),inactive: 2.28%
16,COc1ccc(OP(C)(=O)Nc2cccc(F)c2)cc1 (stereo not drawn),inactive: -21.4%
17,Cc1cc(C)cc(OP(C)(N)=O)c1 (stereo not drawn),inactive: -0.452%
18,O=[N+]([O-])c1cc([N+](=O)[O-])c(Nc2cccnc2)c([N+](=O)[O-])c1,inactive: -2.17%
19,CC(C)(C)c1ccc(OP(C)(=O)Nc2ccc(SC(F)(F)F)cc2)cc1 (stereo not drawn),inactive: 2.61%
20,Cc1cccc(C)c1OP(C)(N)=O (stereo not drawn),inactive: -26.2%
21,O=[N+]([O-])c1ccc2c(c1)C=Nc1ccccc1O2,inactive: -2.82%
22,CCN(CC)CCCOC(=O)C(O)(c1ccccc1)c1ccccc1,inactive: 0.62%
